The record followed here is ChEMBL document CHEMBL1125689, “Structure-activity studies on a potent antagonist to organophosphate-induced toxicity” (1991).

For test [1], the system named is Mus musculus. Kind of test: Ability to antagonize paraoxon (1.0 mg/kg sc)-induced motor incoordination in mice.
Test [2] deals with Mus musculus. Kind of test: Ability to antagonize paraoxon-induced lethality in mice.(umol/kg required to protect 50% of the mice for 24 h versus a LD99 dose of paraoxon).

The term ED50 denotes the midpoint of the dose-response relation. A lower ED50 goes with an effect at a small dose. `CNC(=O)Oc1ccc2c(c1)[C@]1(C)CCN(C)[C@@H]1N2C` displayed an ED50 in the test with Mus musculus [1] of 0.0076 µmol/kg. Besides, the PD50 in the test on Mus musculus [2] was found to be 0.02 µM/kg.
